Experimental data taken from patent US8633226B2, “Piperidinyl derivative as a modulator of chemokine receptor activity” (Bristol-Myers Squibb Company, priority 2008, dated 2014).

Sequences of proteins named here, by UniProt entry; tags and fusion partners are left off.
UniProt O75469, whole entry: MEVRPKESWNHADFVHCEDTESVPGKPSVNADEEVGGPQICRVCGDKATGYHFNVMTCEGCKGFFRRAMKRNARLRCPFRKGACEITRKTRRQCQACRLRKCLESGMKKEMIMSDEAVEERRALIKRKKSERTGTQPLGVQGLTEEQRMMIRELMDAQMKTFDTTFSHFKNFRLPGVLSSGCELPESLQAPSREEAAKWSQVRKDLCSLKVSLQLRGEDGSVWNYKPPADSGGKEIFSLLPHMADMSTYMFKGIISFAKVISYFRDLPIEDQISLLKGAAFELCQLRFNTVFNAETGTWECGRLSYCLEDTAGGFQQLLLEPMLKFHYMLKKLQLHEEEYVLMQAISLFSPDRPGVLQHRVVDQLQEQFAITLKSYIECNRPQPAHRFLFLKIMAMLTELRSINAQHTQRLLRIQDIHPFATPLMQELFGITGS

What was measured:
Human PXR = Human PXR (Homo sapiens (Human), UniProt O75469); assay: PXR transactivation assay; conditions: HepG2 cells, CYP3A-Luc reporter; reported as EC20
[1] = In vitro metabolism assay, human liver microsomes, Assay Conditions A; conditions: 0.5 μM compound, 10 minutes, 37° C.
Experimental: Test compound is received as a 3.5 mM stock solution in 100 percent DMSO. Compound is diluted to create a 50 μM acetonitrile (ACN) solution containing 1.4% DMSO, which is then used as a 100× stock for incubation with microsomes. Each compound is tested in duplicate separately in each of three species in the Metabolic Stability-Human, Rat, and Mouse assay suite or as individual species in the Metabolic Stability-Dog or Metabolic Stability-Monkey suites. Compound, NADPH and liver microsome solutions are combined for incubation in three steps:
152 μL of liver microsome suspension, protein concentration of 1.1 mg/mL in 100 mM NaPi, pH 7.4, 6.6 mM MgCl2 buffer, is pre-warmed at 37° C.
• 1) 1.7 μL of 50 μM compound (98.6% ACN, 1.4% DMSO) is added to the same tube and pre-incubated at 37° C. for 5 minutes. • 2) The reaction is initiated by the addition of 17 μL of pre-warmed 10 mM NADPH solution in 100 mM NaPi, pH 7.4. • 3) Reaction components are mixed well, and 75 μL are immediately transferred into 150 μl quench/stop solution (zero-time point, T0). Reactions are incubated at 37° C. for 10 minutes and then an additional 75 μL aliquot is transferred into 150 μL quench solution. […]

Which “PXR EC20” value (Human PXR) does the source give for `CC(C)COC(=O)N[C@@H](C(=O)N1CC[C@](O)(c2ccc(Cl)cc2)C(C)(C)C1)C(C)C` here?
The value was 1900 nM.

And the “Human Liver Microsomal Metabolism % remaining (Assay Conditions A)” value [1]?
The value was 13% (A).
